Assay: Solubility measurement in injectable water
Format: physicochemical
Conditions: 1 g in 5 ml of injectable water, strongly shaken at 25° C.

## 3-O-(6-sulfo-α-D-quinovopyranosyl)-1-O-stearoyl-propane-1,3-diol calcium salt [αSQAP C18:0 calcium salt]
  dissolution in injectable water: immediately dissolved
